Chains of the proteins cited; added tags and fusions are not shown.
ATP-dependent Clp protease proteolytic subunit (Bacillus subtilis (strain 168)), P80244, UniProt P80244, whole entry, looked up: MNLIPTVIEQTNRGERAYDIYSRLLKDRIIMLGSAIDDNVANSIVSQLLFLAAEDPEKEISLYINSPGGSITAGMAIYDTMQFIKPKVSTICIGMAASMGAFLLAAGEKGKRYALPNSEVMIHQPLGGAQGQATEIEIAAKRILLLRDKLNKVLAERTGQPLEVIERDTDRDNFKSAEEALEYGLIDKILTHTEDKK

# High-throughput results from PubChem BioAssay.
# Sampled rows, rich in hits. Any-hit rate of the full collection: about 2.5%.
# TrxR1 substrate: rat thioredoxin reductase 1 substrate activity; Potency, µM (series often up to 114 µM); 390,000 compounds, 0.01% hits; purified TrxR1 substrate turnover, NADPH consumption readout; AID 588456; further: nearly all actives have a fitted effect of over 50% in size
#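 Rat TrxR1, dispensed at 90 nM, was prereduced with 400 uM NADPH (final) for 5 min at ~22 deg C, then incubated with compound 15 min before 400 uM selenite. A first-read NADPH fluorescence drop versus no-compound background flagged substrates.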
# TrxR1 inh: blocks rat thioredoxin reductase 1; O89049; recombinant rTrxR1, NADPH fluorescence consumption, selenite substrate; Potency, µM (doses to about 114 µM), actives largely listed as inhibitors; 390,000 compounds, 1% hits; AID 588453; further: nearly all actives have a fitted effect of over 65% in size
#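 Rat TrxR1 (90 nM in the dispensed reagent) was pre-reduced with 400 uM NADPH for 5 min at room temperature, then incubated with compound for 15 min. After 400 uM selenite was added, NADPH fluorescence (Ex 340/Em 450 nm) was followed for 8 min.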
# ClpP mod: qHTS Assay for Activators of ClpP; AID 651965, 2013; Potency, µM (series often up to 57.5 µM); purified B. subtilis ClpP, FRET peptide cleavage, 20 min; ATP-dependent Clp protease proteolytic subunit (Bacillus subtilis (strain 168)), P80244; 340,000 compounds, 1.9% hits; active means well fitted falling curve with a large enough effect; inconclusive means small, poorly fitted or top-dose-only effect; inactive means no such curve, though single readings can be large or run the other way; further: the source files actives as falling curves though it sought activators and does not explain the sign; nearly all actives have a fitted effect of over 65% in size
#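 Buffer: 100 mM Tris/HCl pH8, 100 mM KCl, 0.05% low protease BSA, 2.5% glycerol, 0.01% Tween-20. ClpP 10 microg/mL final; 20 min RT; delta FRET normalized to ADEP and DMSO controls.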
# Anesthetic bind: binds horse apoferritin like a general anesthetic; AID 485281; Potency, µM (highest dose often 77.5 µM), hits mostly inhibitors; apoferritin/1-aminoanthracene competitive binding, fluorescence; 350,000 compounds, 0.074% hits; further: nearly all actives have a fitted effect of over 20% in size
#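 Probe: 1-aminoanthracene (50% saturated, PBS). Protein: horse-spleen apoferritin, 10 uM. Incubation: 10 min, room temperature. Detection: 380 nm excitation, 535 nm emission. Analysis: normalized response, four-parameter Hill.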
# miR-21 reporter: raises the signal of a miR-21 reporter | AID 2288 | 340,000 tested, under 10 active | Potency, µM (series often up to 38.3 µM) | HeLa miR-21 FLuc reporter, luciferase, 48 h; active = well fitted rising curve with a large enough effect; inconclusive = small, poorly fitted or top-dose-only effect; inactive = no such curve, though single readings can be large or run the other way;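 further: miR-21 action dims this reporter so a rising signal means less miR-21 action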
#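 Luminescence from a firefly luciferase reporter carrying a miR-21 binding site downstream, stably expressed under a CMV promoter in HeLa cells that make miR-21 endogenously, reports miRNA modulation after 48 h compound exposure up to approximately 40uM final.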
# Hits are given with their value; i = inactive; ? = inconclusive; nt = not tested or not shown; [ ] = remark or other dose. Unless noted, the call rests on the fitted dose curve; in most records, active means well fitted curve in the direction sought with a large enough effect; inconclusive means small, poorly fitted or top-dose-only effect, or another doubt; inactive means no such curve, though single readings can be large; an effect the other way counts as inactive or inconclusive.
SMILES,TrxR1 substrate,TrxR1 inh,ClpP mod,Anesthetic bind,miR-21 reporter
CC(C)(C)C(=O)Nc1cccc(-c2nc3ccccc3[nH]2)c1,i,i,?,i,i
CC(C)(C)C(=O)Nc1sc2c(c1-c1nc3ccccc3[nH]1)CCCC2,i[11.4 µM],i[11.4 µM],22µM,i,i
COc1ccc(-n2c(SCC(=O)Nc3cccc(C)c3C)nc3c([nH]c4ccccc43)c2=O)cc1,i,i,i,i,i
COc1ccc(CNC(=O)CSc2nc(-c3ccccc3)cc(-c3cccs3)c2C#N)cc1,i,i,?,i,i
COc1cc(-c2cc(-c3ccccc3)nc(SCC(=O)Nc3nccs3)c2C#N)cc(OC)c1OC,i,i,25µM,i,i
CC(C)S(=O)(=O)c1oc(-c2cccs2)nc1S(=O)(=O)c1ccc(F)cc1,i,0.71µM,i,i,?
Cc1ccc(S(=O)(=O)c2nc(-c3cccs3)oc2SC(C)C)cc1,i,i,i,i,i
CS(=O)(=O)c1oc(-c2ccc(F)cc2)nc1S(=O)(=O)c1ccc(Cl)cc1,i,0.5µM,i,i,?
CSc1oc(-c2ccc(F)cc2)nc1S(=O)(=O)c1ccccc1,i,i,i,i,i
CSc1oc(-c2ccc(F)cc2)nc1S(=O)(=O)c1ccc(F)cc1,i,i,i,i,i
CCS(=O)(=O)c1oc(-c2ccc(F)cc2)nc1S(=O)(=O)c1ccc(Br)cc1,i,0.56µM,i,?,?
CC(C)S(=O)(=O)c1oc(-c2ccc(F)cc2)nc1S(=O)(=O)c1ccccc1,i,0.32µM,i,i,?
O=c1[nH]cnc2n[nH]nc12,i,i,i,nt,nt
Cc1ccc(-c2noc(CNC(=O)c3ccc(Br)o3)n2)cc1,i,i,i,?,i
CCCCS(=O)(=O)c1oc(-c2ccc(F)cc2)nc1S(=O)(=O)c1ccccc1,i,1.1µM,i,?,?
Cc1ccc(-n2nc3c(c2NC(=O)c2ccc(F)c(F)c2)CS(=O)(=O)C3)cc1,i,i,28µM,i,i
CCOc1ccc(NC(=O)c2oc3ccccc3c2NC(=O)c2ccc(OC)cc2OC)cc1,i,i,i,i,i
COc1ccccc1CNc1nc(-c2ccco2)nn1C(=O)c1ccccc1[N+](=O)[O-],i,i,i,i,i
CCOC(=O)c1c(C)n(C(=O)c2ccco2)c(=O)n1C(=O)c1ccco1,i,40µM,i,i,i
COc1ccc(C2CC(c3ccc4ccccc4c3)=NN2C(=O)CSc2ncccn2)cc1 (stereo not drawn),i,i,22µM,i,i
COc1cc(C2Nc3ccccc3C(=O)N2c2ccccc2)c(Br)cc1OCC(=O)O (stereo not drawn),i,i,32µM,i,i
CC(C)Oc1cccc(-c2cc(C(=O)NC(=S)N(C)c3ccccc3C(=O)O)c3ccccc3n2)c1,i,i,6.3µM,i,i
Cc1cc(-c2ccc(C)c(S(=O)(=O)NC(c3cccs3)C(C)C)c2)on1 (stereo not drawn),i,i,i,i,i
c1ccc2c(c1)sc[n+]2CCC1CCCCC1,i,i,i,nt,nt
C=C1C(c2ccc(C)cc2)=CCc2cc(C)cc(C)c21,nt,nt,nt,i,nt
SMILES,TrxR1 substrate,TrxR1 inh,ClpP mod,Anesthetic bind,miR-21 reporter
O=C1NC2c3c(I)sc(I)c3C(=O)C2O1 (stereo not drawn),i,2.5µM,i,nt,nt
O=C1NC2c3c(Cl)sc(Cl)c3C(=O)C2O1 (stereo not drawn),i,6.3µM,i,nt,nt
O=C(c1ccc2c(c1)OCCO2)N(Cc1cccnc1)c1nc2c(F)cc(F)cc2s1,i,i,?,i,i
CCOc1ccc2[nH]c(=O)c(CN(CCO)C(=O)c3ccc(Br)cc3)cc2c1,i,i,32µM,i,i
CCOc1ccc2[nH]c(=O)c(CN(Cc3ccco3)C(=O)c3ccc(Br)cc3)cc2c1,i,i,?,i,i
CCC(=O)N(CCc1ccccc1)Cc1cc2cc(OC)ccc2[nH]c1=O,i,i,i,i,i
CCOc1ccc2[nH]c(=O)c(CN(CCO)C(=O)CC)cc2c1,i,i,28µM,i,i
CCOc1ccc2[nH]c(=O)c(CN(Cc3ccccc3OC)C(=O)c3ccccc3)cc2c1,i,i[11.4 µM],32µM,i,i
CCOc1ccc2[nH]c(=O)c(CN(Cc3ccco3)C(=O)c3cccc(F)c3)cc2c1,i,i,32µM,i,i
COc1ccc2[nH]c(=O)c(CN(CCO)C(=O)c3cccs3)cc2c1,i,i,i,i,i
COc1cccc(C(=O)Nc2ccc3nc(SCC(=O)N4CCOCC4)sc3c2)c1,i,i,i,i,i
Cc1cccc(NC(=O)CN2C(=O)CCc3ccccc32)c1C,i[11.4 µM],i,i,i,i
O=C(CC1OC(=O)c2ccccc21)Nc1ccccc1N1CCOCC1 (stereo not drawn),i,i,i,i,i
CC(=O)N1CCN(C(=O)CC2OC(=O)c3ccccc32)CC1 (stereo not drawn),i,2.5µM,i,i,i
Cn1c(=NC(=O)CCl)sc2ccccc21,i,35µM,?,i,?
Cn1/c(=N\NC(=O)C2CCCCC2)sc2ccccc21,i,i,14µM,i,i
Cc1ccc2c(c1)-c1onc(C(=O)N3CCN(c4ccc(Cl)cc4)CC3)c1CO2,i,i,i,i,i
Cc1ccc(C(=O)N2c3nc(-c4ccco4)nn3C3(CCCCC3)[C@@H]3CCCC[C@@H]32)cc1,i,?,i,i,i
COCc1cc(C)nc(NCCO)c1C#N,i,i,32µM,i,i
O=C(NC(=S)Nc1ccc(N2CCOCC2)cc1)c1ccccc1,i,?,nt,i,i
Cc1ccccc1C(=O)NC(=S)Nc1ccc(N2CCOCC2)cc1,i,56µM,i,i,i
CCC(=O)N1CCc2cc(Br)cc(S(=O)(=O)CCC(=O)N3CCN(c4ccccc4OC)CC3)c21,i[2.29 µM],i,i,i,i
O=C(N/N=C/c1ccc(N2CCOCC2)o1)c1cccc(F)c1,i,11µM,i,i,i
COc1ccc(C(=O)N/N=C/c2ccc(N3CCOCC3)o2)cc1OC,i,28µM,nt,i,i
COc1ccc(NC(=O)N2CCc3c([nH]c4ccc(OC)cc34)C2c2ccc(OC)cc2)cc1 (stereo not drawn),i,i,i,i,i
CCCN(CCC)c1cc(C)nc2nc(-c3ccc(Cl)cc3)nn12,i,i,i,i,i
O=C(O)C1C2C=CC(O2)C1C(=O)NCc1ccc2c(c1)OCO2 (stereo not drawn),i,i,i,i,i
O=C(O)C1C2C=CC(O2)C1C(=O)NCc1ccc(Cl)cc1 (stereo not drawn),i,i,35µM,i,i
CC(C)OC(=O)c1c(NC(=O)c2ccco2)sc2c1CCCCC2,i,i,28µM,?,i
COC(=O)c1c(NC(=O)c2c(-c3ccccc3Cl)noc2C)sc2c1CCC2,i,i,32µM,i,i
